Results taken from EP4732839A1, “USE OF COMPOUND IN TREATMENT OF LIVER DISEASES” (priority 2023, dated 2025).

Settings: 3/10/20 mpk i.g., livers collected 1 h, 2 h, 4 h post-dose
Experimental: C57BL/6J wild-type female mice (6 weeks old) were randomly grouped. After administration at different doses, whole blood and liver tissues of the mice were separately collected at 1 h, 2 h, and 4 h for detection of a plurality of parameters to evaluate the effect of the drugs on the liver.
Liver tissues and blood were collected at 1 h, 2 h, and 4 h after single dosing.
The supernatant was collected and stored (-20 °C); • (3) IFN-α, IP-10, IL-6, and TNF-α were detected using an ELISA kit. • (C) Remaining liver tissue-HE staining and pathological evaluation. • (D) 1/2 blood (whole blood)-liver function parameter detection: AST (aspartate aminotransferase), ALT (alanine aminotransferase/glutamate pyruvate transaminase), ALP (alkaline phosphatase), ALB (albumin), and GGT (γ-glutamyl transferase). • (E) 1/2 blood-serum preparation-reserve for ELISA.

COCCNc1nc(N)nc2ccc(Cc3ccc(CN(C)C)cc3)nc12 [Compound I]
Liver HE staining: did not cause apparent pathological damage to the liver tissues
